Values of other authors as cited in patent publication US20200306252A1, “COMPOSITION FOR PREVENTING AND/OR TREATING DEMENTIA” (priority 2019, published 2020).

Settings: in vivo

Substance: bapineuzemab: Pfizer's (BACE) inhibitor, failed clinical trial Phase III in 2012
- clinical trial Phase III outcome: no clinical benefit
